Experiment: Phase 3 clinical trials of lorcaserin for weight management
Details: pivotal phase 3 clinical trial program, treated for up to two years

SMILES: C[C@H]1CNCCc2ccc(Cl)cc21 [Compound 1]
- patients achieved at least 5% weight loss: About two-thirds
